Laboratory results as given in patent US10618930B2, “Compounds for the treatment of cancer” (Eisai R&D Management Co., Ltd., priority 2017, dated 2020).

Key:
CT26 tumor cells = details: 10 mg/kg intratumorally, a single time
GL261 mouse glioma cells = details: 10 mg/kg intratumorally, a single time
[1] = into the sc tumor, overall survival

## O=[P@]1(S)OC[C@H]2O[C@@H]3[C@H](F)[C@@H]2O[P@](=O)(S)OC[C@H]2O[C@H]([C@H](F)[C@@H]2O1)n1cnc2c(ncnc21)NC/C=C/CNc1ncnc2c1ncn23 [Compound 1a]
CT26 tumor cells
  activity towards the local sc tumors: potent activity
CT26 tumor cells; [1]
  curative systemic activity (treated animals): 9 of 10
GL261 mouse glioma cells
  activity at local sc tumors: potent activity
GL261 mouse glioma cells; [1]
  curative systemic activity (treated animals): 5 of 8
